Measurements taken from article PMC2765529 (Journal of medicinal chemistry, 2009).

By UniProt entry, the sequences of proteins in these tests, tags left out.
UniProt Q60492, whole entry: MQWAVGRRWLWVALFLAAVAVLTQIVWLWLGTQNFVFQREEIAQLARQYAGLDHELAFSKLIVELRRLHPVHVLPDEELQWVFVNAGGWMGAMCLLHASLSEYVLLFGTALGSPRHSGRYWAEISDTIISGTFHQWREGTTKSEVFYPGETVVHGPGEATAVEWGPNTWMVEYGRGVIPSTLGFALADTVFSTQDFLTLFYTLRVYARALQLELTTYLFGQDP

Biological target: σ1 receptor (Cavia porcellus, UniProt Q60492)
Test: σ1 receptor binding, [^3H]
Conditions: σ1 (Ki [nM]), guinea pig brain membranes; mean ± SEM

- Ki: 659 ± 118 nM
SMILES: O=C(c1ccc(F)cc1)C1CCN([C@@H]2Cc3ccccc3C[C@H]2O)CC1 (single isomer, unassigned) [(-)-9e]
